Laboratory results reported in US20240269228A1 (priority 2021, published 2024).

Protein sequences, listed by entry. Tags and fused reporters are not part of them. Residues count along the entry.
UniProt Q9GZZ6, 25-450 limits assumed: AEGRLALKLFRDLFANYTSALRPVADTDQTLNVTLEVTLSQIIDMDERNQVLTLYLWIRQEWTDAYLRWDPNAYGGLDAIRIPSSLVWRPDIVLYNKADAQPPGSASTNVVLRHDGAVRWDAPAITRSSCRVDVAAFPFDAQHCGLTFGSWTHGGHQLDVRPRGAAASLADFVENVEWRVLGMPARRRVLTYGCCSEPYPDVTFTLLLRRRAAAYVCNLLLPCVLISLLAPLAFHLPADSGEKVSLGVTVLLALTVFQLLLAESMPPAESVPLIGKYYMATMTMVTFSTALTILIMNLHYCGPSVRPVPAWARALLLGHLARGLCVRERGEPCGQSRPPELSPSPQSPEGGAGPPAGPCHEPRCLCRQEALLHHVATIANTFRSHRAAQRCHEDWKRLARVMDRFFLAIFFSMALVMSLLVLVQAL
UniProt Q9UGM1, 26-479 limits assumed: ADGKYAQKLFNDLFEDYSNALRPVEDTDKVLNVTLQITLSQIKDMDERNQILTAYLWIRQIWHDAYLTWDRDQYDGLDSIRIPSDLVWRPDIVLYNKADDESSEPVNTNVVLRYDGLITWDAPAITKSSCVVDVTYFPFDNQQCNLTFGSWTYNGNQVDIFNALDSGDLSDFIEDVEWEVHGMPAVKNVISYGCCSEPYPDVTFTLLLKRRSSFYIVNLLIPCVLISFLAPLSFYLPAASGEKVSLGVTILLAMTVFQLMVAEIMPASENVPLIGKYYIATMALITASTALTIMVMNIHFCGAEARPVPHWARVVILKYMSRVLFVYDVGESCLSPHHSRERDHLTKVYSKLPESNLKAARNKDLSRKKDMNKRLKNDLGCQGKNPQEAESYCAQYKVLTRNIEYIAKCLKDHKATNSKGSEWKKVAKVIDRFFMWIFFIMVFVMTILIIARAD

Target: human α9α10 nAChR (Homo sapiens, UniProt Q9GZZ6+Q9UGM1)

Sequence: G C C S D P R C R Y R C R [RgIA]
- recovery after 5 min peptide washout: > 99%
